The source of these data is US11091546B2, “Optimized PNE-based chimeric receptor T cell switches and uses thereof” (The Scripps Research Institute, priority 2015, dated 2021).

Test [1] deals with Her2 ECD and anti-GCN4 CAR-T cells. The experiment in a line: Crosslinking (ternary complex) between anti-GCN4 CAR-T cells and Her2 ECD. It counts as binding. The following applies: mean of duplicates ± SD.
For test [2], the system named is MDA MB453 (Her2 2+). Kind of test: Binding of GCN4 tagged anti-Her2 fusions on breast cancer cells (flow cytometry). The text has this: (§1) Bound switches were detected with an Alexa Fluor647 conjugated anti-human IgG (H+L) secondary antibody.
(§2) Replacing the long 45 amino acid CD8 hinge CAR region with a shorter 12 amino acid hinge derived from a dimeric mutant of the IgG4 hinge (IgG4m) improved anti-GCN4 sCAR-T cell activity in the context of targeting CD19 and CD20, putatively by reducing the overall distance between the sCAR-T cell and target cell (FIG. 44B). However, it is unknown if the increased activity of the IgG4m hinge can be extended to the Her2 antigen.

For test [3], the system named is MDA MB435 (Her2 1+). The description is as above.
From the text: as §1
(§3) However, it is unknown if the increased activity of the IgG4m hinge can be extended to the Her2 antigen.

Test [4] has as its system MDA MB468 (Her2 0). The test is described as above.
From the text: as §1, §3

Test [5] deals with SKBR3 (Her2 3+). The description is as above.
From the text: as §1, §3

In test [6] the test system is GCN4 specific CAR-T cells. The experiment in a line: Binding of anti-Her2 GCN4 switches to anti-GCN4 sCAR-T cells (CD8 and IgG4m hinge). The procedure:
The location of the two N-terminal and two C-terminal positions that were grafted with the PNE (GCN4) are indicated by P1, P3 (N-terminal) and P2, P4 (C-terminal). […] FIG. 44C show the relative distances between bivalent sites on the CTBV switch, as modeled over the 4D5 Fab structure (Protein Data Bank ID 1N8Z). Distance were calculated with UCSF Chimera 1.10.2. […] Cells were incubated with indicated switches and detected with Alexa Fluor647 conjugated anti-human kappa chain antibody. The EC50 value was calculated with Graphpad Prism software.
Cells were incubated with indicated switches and detected with Alexa Fluor647 conjugated anti-human kappa chain antibody.
Next, the capacity of sCAR-T cells with CD8 or IgG4m hinges to bind their corresponding anti-Her2 switches was tested. The GCN4 switches were used to stain anti-GCN4 sCAR-T cells, and detected with an APC-labeled anti-human kappa-chain antibody specific for the constant region at the Fab. […] Together with the target cell binding assay, we confirmed that PNE grafted fusions reserved the binding specificity to the target cells as well as the tag recognition of 4D5-based switch by the sCAR-T cells.

Test [7] has as its system HCC1954 (Her2 3+). Kind of test: HCC1954 xenograft model. It counts as in vivo, NSG mice. The conditions noted are these: sCAR-T cells + 0.5 mg/kg every other day. The procedure:
(§4) Ten days after cancer cell implantation in NSG mice, mice were i.v. injected with 30×10^6 CAR-T cells, followed by a dose of switch or wild type 4D5 Fab at 0.5 mg/kg every other day for 14 days. […] Tumor volume was calculated by W×L×H. Each data point represents tumor volume of five mice in each group. Error bars represent SD. Arrows indicate time of CAR-T cell injection or of treatment with specific antibodies.
(§5) FIGS. 42E-F show in vivo activity of sCAR-T cells with anti-HER2 switch. […] The experiments shown in FIG. 42E&F were conducted with 6 to 8-week-old female NSG mice. 5×10^6 of HCC1954 (HER2 3+) or MDA MB453 (HER2 2+) the human breast cancer cell lines in 50% Matrigel (BD Bioscience) were subcutaneously implanted into the right flank of mice. Ten days after tumor implantation, mice received 30×10^6 sCAR-T cells or the direct HER2 CAR-T cells (both with a transduction efficiency of 45-55%) via intra venous injection. […] Tumors were measured twice weekly using calipers. Tumor volume was calculated based on width×length×height.
(§6) To compare the in vivo antitumor ability of each optimized sCAR-T, their in vivo efficacies were evaluated in mouse xenograft models using Her2 3+ (HCC1954) and Her2 2+ (MDA MB453) breast tumors. […] Tumor growth was monitored for 50 days. […]

Test [8] relates to MDA MB453 (Her2 2+). Kind of test: MDA MB453 xenograft model. It is filed as in vivo, NSG mice. The conditions noted are these: sCAR-T cells + 0.5 mg/kg every other day. The procedure: as §4, §5, §6
Test [9] concerns MDA MB231 (Her2 1+). Kind of test: Binding of GCN4 tagged anti-Her2 fusions on breast cancer cells (flow cytometry).
From the text: as §2

Where [10] appears, read: Anti GCN4 CAR-EC with CD8 hinge.
Where [11] appears, read: Anti-GCN4 CAR-EC with IgG4m hinge.

For the substance “Anti-Her2 Fab: wild type anti-Her2 4D5 Fab without peptide graft [reference compound]”, the results for the Maximal binding result in [1] (setting [10]) and in test [1] (setting [11]) were “N.D./2.9 ± 0.5 MFI × 100” and “N.D./1.6 ± 1.0 MFI × 100”, respectively. In addition, the “MFI (mean fluorescence intensity)” value is given as 8081 in [2]; 245 in [3]; 86 in test [4]; 14306 in [5]; 424 in test [9]. Further, the “Relative Binding Index (MFI of indicated antibody/MFI of anti-CD19 Fab)” value in test [2] is 55; in test [5], 95; in test [9] it was 5. Also, the “binding to sCAR-T cells” value in test [6] is “failed to bind any sCAR-T cells”. In addition, the tumor growth result in test [7] and in [8] was “no effect on tumor growth” each time.
“anti-Her2 Fab NTBV: 4D5 anti-Her2 Fab, GCN4 on N-terminus of heavy and light chain”: the Maximal binding entry in test [1] (setting [10]) is “N.D./12.2 ± 1.1 MFI × 100”; in test [1] (setting [11]) it was “N.D./31.4 ± 0.3 MFI × 100”.
For “anti-Her2 Fab HCCT: 4D5 anti-Her2 Fab, GCN4 on heavy chain C-terminus” the same measures were 44.7 ± 3.1 MFI × 100 and 57.4 ± 1.2 MFI × 100.
Regarding “anti-Her2 Fab HCNT: 4D5 anti-Her2 Fab, GCN4 on heavy chain N-terminus”, the Maximal binding in test [1] (setting [10]) is 50.6 ± 2.4 MFI × 100; in [1] (setting [11]), 46.6 ± 2.1 MFI × 100.
